Data: article PMC4538835 (Nucleic Acids Research, 2015)

Target: T1, MED25 ACID/PTOV domain (Homo sapiens, UniProt Q71SY5)
T1 sequence (Q71SY5 391-548): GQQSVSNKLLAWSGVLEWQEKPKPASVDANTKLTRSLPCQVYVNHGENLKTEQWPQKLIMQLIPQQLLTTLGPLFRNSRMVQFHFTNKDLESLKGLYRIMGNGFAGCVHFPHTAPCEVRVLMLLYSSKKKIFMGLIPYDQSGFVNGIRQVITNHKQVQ
Assay: Fluorescence polarization
Type: binding
Details: FP Kd ratio, mutant vs wild-type ERM38–68

Structure (SMILES): CC[C@H](C)[C@H](NC(=O)[C@H](C)NC(=O)[C@H](CC(N)=O)NC(=O)c1ccc(C(=O)[O-])c(-c2c3ccc(=[N+](C)C)cc-3oc3cc(N(C)C)ccc23)c1)C(=O)NCC(=O)N[C@@H](CO)C(=O)N[C@@H](CCSC)C(=O)N[C@@H](CC(=O)O)C(=O)N[C@@H](CC(C)C)C(=O)N[C@@H](C)C(=O)N[C@@H](Cc1c[nH]cn1)C(=O)N[C@@H](CC(=O)O)C(=O)N[C@@H](CO)C(=O)N[C@@H](CCC(=O)O)C(=O)N[C@@H](CCC(=O)O)C(=O)N[C@@H](CC(C)C)C(=O)N[C@@H](C)C(=O)N[C@@H](CCC(N)=O)C(=O)N[C@@H](CC(=O)O)C(=O)N[C@@H](CC(C)C)C(=O)N[C@@H](CO)C(=O)N[C@@H](CCC(N)=O)C(=O)N[C@@H](CC(C)C)C(=O)N[C@@H](CCC(N)=O)C(=O)N[C@@H](CCC(=O)O)C(=O)N[C@@H](C)C(=O)N[C@@H](C)C(=O)N[C@@H](CC(C)C)C(=O)N[C@@H](C)C(=O)N[C@@H](CCC(=O)O)C(=O)N[C@@H](C)C(=O)N[C@@H](CCC(N)=O)C(=O)N[C@H](C(=O)N1CCC[C@H]1C(=O)N[C@@H](CC(=O)O)C(=O)N[C@@H](CC(=O)O)C(=O)N[C@@H](CCC(=O)O)C(=O)N[C@@H](CCC(N)=O)C(=O)O)C(C)C [ERM38–68 F47A/W57A]
- fold drop in affinity relative to wild-type ERM38–68: 75 fold
